This is an account of results in US10246453B2, “Benzenesulfonamide compounds and their use as therapeutic agents” (Xenon Pharmaceuticals Inc., priority 2016, dated 2019).

Sequences of proteins named here, by UniProt entry; tags and fusion partners are left off. A line that says so, or that is headed by a name, gives the form on record, which may keep a tag or linker.
UniProt Q9UQD0, whole entry, looked up: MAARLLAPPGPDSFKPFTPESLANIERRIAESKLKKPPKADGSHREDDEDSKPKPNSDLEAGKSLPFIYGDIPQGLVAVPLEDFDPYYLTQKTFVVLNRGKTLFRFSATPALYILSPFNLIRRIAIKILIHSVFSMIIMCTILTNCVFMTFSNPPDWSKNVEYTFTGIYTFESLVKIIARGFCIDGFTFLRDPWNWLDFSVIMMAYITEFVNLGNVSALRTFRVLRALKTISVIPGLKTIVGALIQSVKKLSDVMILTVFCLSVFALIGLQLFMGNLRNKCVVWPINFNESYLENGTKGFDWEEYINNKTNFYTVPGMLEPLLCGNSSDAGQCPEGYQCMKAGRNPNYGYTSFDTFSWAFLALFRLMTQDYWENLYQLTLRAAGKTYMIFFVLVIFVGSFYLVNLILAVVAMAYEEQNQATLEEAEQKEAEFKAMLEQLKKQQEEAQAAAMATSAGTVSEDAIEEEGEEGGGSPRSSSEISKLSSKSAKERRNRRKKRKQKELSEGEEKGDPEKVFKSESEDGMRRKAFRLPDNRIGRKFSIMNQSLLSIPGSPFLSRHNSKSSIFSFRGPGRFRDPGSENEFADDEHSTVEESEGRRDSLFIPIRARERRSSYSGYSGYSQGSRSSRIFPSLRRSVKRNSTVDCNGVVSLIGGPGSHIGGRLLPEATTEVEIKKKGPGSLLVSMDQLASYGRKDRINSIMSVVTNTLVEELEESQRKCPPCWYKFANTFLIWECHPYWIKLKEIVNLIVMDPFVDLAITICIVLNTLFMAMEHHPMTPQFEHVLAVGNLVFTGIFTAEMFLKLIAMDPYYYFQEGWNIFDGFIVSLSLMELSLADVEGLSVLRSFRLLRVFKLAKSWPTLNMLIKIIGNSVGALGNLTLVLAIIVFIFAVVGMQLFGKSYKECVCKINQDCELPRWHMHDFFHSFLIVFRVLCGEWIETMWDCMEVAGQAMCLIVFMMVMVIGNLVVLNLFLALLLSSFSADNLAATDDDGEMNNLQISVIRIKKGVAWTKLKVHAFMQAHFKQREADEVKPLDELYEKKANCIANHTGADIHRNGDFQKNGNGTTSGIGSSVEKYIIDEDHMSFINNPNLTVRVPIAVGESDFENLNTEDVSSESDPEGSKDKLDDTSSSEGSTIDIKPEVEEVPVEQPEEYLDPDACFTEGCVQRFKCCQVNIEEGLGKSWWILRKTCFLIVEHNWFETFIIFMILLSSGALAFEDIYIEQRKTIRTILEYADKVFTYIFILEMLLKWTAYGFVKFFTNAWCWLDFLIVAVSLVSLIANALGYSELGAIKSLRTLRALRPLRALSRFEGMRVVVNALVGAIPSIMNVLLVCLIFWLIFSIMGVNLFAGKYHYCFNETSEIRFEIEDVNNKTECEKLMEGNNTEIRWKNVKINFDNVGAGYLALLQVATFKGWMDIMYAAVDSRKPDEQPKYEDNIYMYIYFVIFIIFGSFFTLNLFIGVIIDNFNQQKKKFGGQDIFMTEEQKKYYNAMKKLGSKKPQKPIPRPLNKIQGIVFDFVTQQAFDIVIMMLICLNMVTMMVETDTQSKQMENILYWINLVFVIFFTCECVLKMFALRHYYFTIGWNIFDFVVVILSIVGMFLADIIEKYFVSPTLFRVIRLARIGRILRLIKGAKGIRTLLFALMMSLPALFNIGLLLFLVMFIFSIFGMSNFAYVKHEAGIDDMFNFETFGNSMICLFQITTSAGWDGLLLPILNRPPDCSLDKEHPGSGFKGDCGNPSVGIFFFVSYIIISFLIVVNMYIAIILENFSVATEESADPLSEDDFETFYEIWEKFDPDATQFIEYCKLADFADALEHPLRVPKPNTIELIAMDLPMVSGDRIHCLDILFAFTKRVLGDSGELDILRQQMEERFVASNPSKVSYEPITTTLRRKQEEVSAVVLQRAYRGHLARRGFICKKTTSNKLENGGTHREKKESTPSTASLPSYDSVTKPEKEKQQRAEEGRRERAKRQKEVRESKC
UniProt Q14524, other isoform, or with tags, fused parts or gaps: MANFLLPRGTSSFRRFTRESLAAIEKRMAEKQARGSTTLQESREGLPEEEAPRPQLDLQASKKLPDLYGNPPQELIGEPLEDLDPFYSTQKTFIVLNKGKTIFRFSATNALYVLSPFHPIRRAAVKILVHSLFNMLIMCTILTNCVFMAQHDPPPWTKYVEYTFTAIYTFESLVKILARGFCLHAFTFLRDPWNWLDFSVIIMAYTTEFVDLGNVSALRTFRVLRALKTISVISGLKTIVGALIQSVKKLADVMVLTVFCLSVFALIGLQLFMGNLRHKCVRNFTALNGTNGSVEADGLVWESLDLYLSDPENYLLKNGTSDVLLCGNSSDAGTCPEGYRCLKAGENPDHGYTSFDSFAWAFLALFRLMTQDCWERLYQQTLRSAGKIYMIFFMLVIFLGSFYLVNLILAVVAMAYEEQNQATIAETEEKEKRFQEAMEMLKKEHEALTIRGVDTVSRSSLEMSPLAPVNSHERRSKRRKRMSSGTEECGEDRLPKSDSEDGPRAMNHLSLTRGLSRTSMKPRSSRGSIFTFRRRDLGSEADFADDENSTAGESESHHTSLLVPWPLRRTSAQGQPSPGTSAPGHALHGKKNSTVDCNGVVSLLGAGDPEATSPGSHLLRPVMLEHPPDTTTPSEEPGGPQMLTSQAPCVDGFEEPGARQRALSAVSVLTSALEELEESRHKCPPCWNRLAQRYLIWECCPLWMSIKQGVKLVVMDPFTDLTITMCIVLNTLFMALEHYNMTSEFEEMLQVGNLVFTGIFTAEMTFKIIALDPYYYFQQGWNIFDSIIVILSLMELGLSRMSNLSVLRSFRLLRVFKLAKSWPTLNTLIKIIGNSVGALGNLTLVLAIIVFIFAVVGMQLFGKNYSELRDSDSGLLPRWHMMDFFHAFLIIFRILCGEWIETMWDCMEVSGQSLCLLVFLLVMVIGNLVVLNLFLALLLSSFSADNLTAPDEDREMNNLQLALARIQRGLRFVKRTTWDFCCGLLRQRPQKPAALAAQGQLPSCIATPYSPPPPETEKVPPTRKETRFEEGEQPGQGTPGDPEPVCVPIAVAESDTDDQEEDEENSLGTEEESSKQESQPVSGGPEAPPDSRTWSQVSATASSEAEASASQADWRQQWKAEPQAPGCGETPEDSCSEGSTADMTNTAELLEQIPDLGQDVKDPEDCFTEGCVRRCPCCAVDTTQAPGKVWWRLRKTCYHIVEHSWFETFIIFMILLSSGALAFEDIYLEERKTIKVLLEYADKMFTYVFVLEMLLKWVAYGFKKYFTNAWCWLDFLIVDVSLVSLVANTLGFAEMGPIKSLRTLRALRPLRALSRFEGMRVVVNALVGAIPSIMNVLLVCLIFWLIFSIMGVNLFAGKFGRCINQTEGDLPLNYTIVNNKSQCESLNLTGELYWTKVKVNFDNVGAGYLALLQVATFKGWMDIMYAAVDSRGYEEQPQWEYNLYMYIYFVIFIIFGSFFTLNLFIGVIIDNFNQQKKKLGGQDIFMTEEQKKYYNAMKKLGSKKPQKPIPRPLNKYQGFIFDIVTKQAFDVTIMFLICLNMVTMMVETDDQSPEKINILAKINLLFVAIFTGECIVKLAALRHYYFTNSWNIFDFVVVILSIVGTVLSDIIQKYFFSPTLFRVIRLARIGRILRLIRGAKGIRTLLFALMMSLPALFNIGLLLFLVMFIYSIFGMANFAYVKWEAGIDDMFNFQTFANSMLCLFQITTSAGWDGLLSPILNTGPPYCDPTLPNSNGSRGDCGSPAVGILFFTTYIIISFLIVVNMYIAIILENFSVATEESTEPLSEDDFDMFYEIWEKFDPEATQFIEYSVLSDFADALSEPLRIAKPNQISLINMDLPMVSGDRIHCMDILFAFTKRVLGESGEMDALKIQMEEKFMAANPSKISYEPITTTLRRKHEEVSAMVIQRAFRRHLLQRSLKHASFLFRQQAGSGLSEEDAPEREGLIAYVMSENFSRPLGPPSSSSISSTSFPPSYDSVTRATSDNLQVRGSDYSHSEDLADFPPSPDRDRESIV

One data set deals with NaV1.6 (Homo sapiens (Human), UniProt Q9UQD0). As to the kind of experiment: Sodium Influx Assay (Flux), NaV1.6.
In data set [1] the target is T1, NaV1.1 (Homo sapiens (Human), UniProt P35498). In words: Sodium Influx Assay (Flux), NaV1.1. Format: cell-based. Particulars: Trex HEK293 cells, ANG2 dye; arithmetic mean.
Data set [2] concerns the target T2, NaV1.5 (Homo sapiens (Human), UniProt Q14524). In words: cell-based.
In data set [3] the target is T1, NaV1.1. In words: Electrophysiological Assay (EP), patch voltage clamp, NaV1.1. Format: cell-based. The settings on record: HEK-293 cells, whole-cell patch clamp, inactivated state; arithmetic mean.
For data set [4], the target named is T2, NaV1.5. In words: Sodium Influx Assay (Flux), NaV1.5. The settings on record: read-out: Flux NaV1.5 IC50; Trex HEK293 cells, ANG2 dye; arithmetic mean.
The target in data set [5] is T2, NaV1.5. In words: Electrophysiological Assay (EP), patch voltage clamp, NaV1.5. Format: cell-based. The settings on record: HEK-293 cells, whole-cell patch clamp, inactivated state; arithmetic mean.

Counter-ions that a name gives are not always drawn. Like-named read-outs stand apart in the source and are kept apart here.

The compound `CC1(Oc2cc(F)c(S(=O)(=O)Nc3cscn3)cc2Cl)CCN(Cc2ccccc2)C1` (racemic) [Example 310, rac-4-((1-benzyl-3-methylpyrrolidin-3-yl)oxy)-5-chloro-2-fluoro-N-(thiazol-4-yl)benzenesulfonamide] gave an IC50 on NaV1.6 of 2.38 µM. Regarding `C[C@@H]1CN(Cc2ccccc2)CC[C@@H]1Oc1ccc(S(=O)(=O)Nc2nccs2)cc1Cl` (relative stereo) [Example 8A, 4-((cis-1-benzyl-3-methylpiperidin-4-yl)oxy)-3-chloro-N-(thiazol-2-yl)benzenesulfonamide], the results for the IC50 on NaV1.6 and against NaV1.1 [1] were 1.09 µM and 5.01 µM, respectively. On to `C[C@@H]1CN(Cc2ccccc2)CC[C@H]1Oc1ccc(S(=O)(=O)Nc2nccs2)cc1Cl` (relative stereo) [Example 8B, 4-((trans-1-benzyl-3-methylpiperidin-4-yl)oxy)-3-chloro-N-(thiazol-2-yl)benzenesulfonamide], for which the IC50 stood at 4.31 µM on NaV1.1 [1] and 14.7 µM on NaV1.5 [2]. Take `C[C@@H]1CN(Cc2ccccc2F)CC[C@@H]1Oc1ccc(S(=O)(=O)Nc2nccs2)cc1Cl` (relative stereo) [Example 10A, 3-chloro-4-((cis-1-(2-fluorobenzyl)-3-methylpiperidin-4-yl)oxy)-N-(thiazol-2-yl)benzenesulfonamide]: it took 4.66 µM to reach half-maximal inhibition at NaV1.1 [1] (IC50).

In the case of `C[C@@H]1CN(Cc2ccccc2F)CC[C@H]1Oc1ccc(S(=O)(=O)Nc2nccs2)cc1Cl` (relative stereo) [Example 10B, 3-chloro-4-((trans-1-(2-fluorobenzyl)-3-methylpiperidin-4-yl)oxy)-N-(thiazol-2-yl)benzenesulfonamide], the values for the IC50 on NaV1.1 [1] and at NaV1.5 [2] were 5.08 µM and 8.56 µM, respectively. Turning to `CC(c1ccccc1)N1CCC(Oc2ccc(S(=O)(=O)Nc3nccs3)cc2Cl)CC1` (stereo not shown) [Example 52, 3-chloro-4-((1-(1-phenylethyl)piperidin-4-yl)oxy)-N-(thiazol-2-yl)benzenesulfonamide], the IC50 on NaV1.1 [1] was 8.37 µM. Take `C[C@H](c1ccccc1)N1CCC(Oc2ccc(S(=O)(=O)Nc3nccs3)cc2Cl)CC1` [Example 55, (R)-3-chloro-4-((1-(1-phenylethyl)piperidin-4-yl)oxy)-N-(thiazol-2-yl)benzenesulfonamide 2,2,2-trifluoroacetate]: the IC50 against NaV1.1 [3] is over 10 µM; on NaV1.5 [4], 9.83 µM; on NaV1.1 [1], 11.8 µM.

In the case of `C[C@@H](c1ccccc1)N1CCC(Oc2ccc(S(=O)(=O)Nc3nccs3)cc2Cl)CC1` [Example 58, (S)-3-chloro-4-((1-(1-phenylethyl)piperidin-4-yl)oxy)-N-(thiazol-2-yl)benzenesulfonamide 2,2,2-trifluoroacetate], the IC50 on NaV1.1 [3] worked out at 9.14 µM; at NaV1.1 [1], 5.14 µM. On to `Cc1cc(S(=O)(=O)Nc2cscn2)c(F)cc1N(C)[C@H]1CCN(Cc2ccccc2)C1` [Example 101, (S)-4-((1-benzylpyrrolidin-3-yl)(methyl)amino)-2-fluoro-5-methyl-N-(thiazol-4-yl)benzenesulfonamide formate], for which the IC50 at NaV1.5 [5] is over 30 µM. With `Cc1cc(S(=O)(=O)Nc2cscn2)c(F)cc1N(C)[C@H]1CCN(Cc2ccccc2O)C1` [Example 113, (S)-2-fluoro-4-((1-(2-hydroxybenzyl)-pyrrolidin-3-yl)(methyl)amino)-5-methyl-N-(thiazol-4-yl)benzenesulfonamide], the IC50 at NaV1.5 [4] stood at 13 µM. Turning to `COc1cccc(CN2CC[C@H](N(C)c3cc(F)c(S(=O)(=O)Nc4cscn4)cc3Cl)C2)c1` [Example 219, (S)-5-chloro-2-fluoro-4-((1-(3-methoxybenzyl)pyrrolidin-3-yl)(methyl)amino)-N-(thiazol-4-yl)benzenesulfonamide], the IC50 at NaV1.5 [4] came out at 13 µM. `O=S(=O)(Nc1cscn1)c1cc(Cl)c(OC2CCN(Cc3ccccc3)CC2)cc1F` [Example 238, 4-((1-benzylpiperidin-4-yl)oxy)-5-chloro-2-fluoro-N-(thiazol-4-yl)benzenesulfonamide 2,2,2-trifluoroacetate]: the IC50 at NaV1.5 [4] was determined as 13 µM. Take `Cc1cc(S(=O)(=O)Nc2cscn2)c(F)cc1N(C)[C@@H]1CCN(Cc2ccccc2)C1` [Example 272, (R)-4-((1-benzylpyrrolidin-3-yl)(methyl)amino)-2-fluoro-5-methyl-N-(thiazol-4-yl)benzenesulfonamide]: the IC50 on NaV1.5 [4] is 18.2 µM; against NaV1.1 [1], 11.7 µM. In the case of `Cc1cc(S(=O)(=O)Nc2cscn2)ccc1N(C)[C@H]1CCN(Cc2ccccc2)C1` [Example 284, (S)-4-((1-benzylpyrrolidin-3-yl)(methyl)amino)-3-methyl-N-(thiazol-4-yl)benzenesulfonamide 2,2,2-trifluoroacetate], the IC50 on NaV1.5 [4] came to 13 µM.

`C[C@@]1(Oc2cc(F)c(S(=O)(=O)Nc3cscn3)cc2Cl)CCN(Cc2ccccc2)C1` [Example 311B, (R)-4-((1-benzyl-3-methylpyrrolidin-3-yl)oxy)-5-chloro-2-fluoro-N-(thiazol-4-yl)benzenesulfonamide]: at NaV1.6 (read-out: Flux NaV1.6 IC50, Trex HEK293 cells, ANG2 dye, arithmetic mean), the IC50 was determined as 1.3 µM.
